Assay results from patent US20230130513A1, “Magnetic-Responsive Photosensitizer Nanoplatform and Uses Thereof” (University of Maryland, Baltimore, priority 2021, published 2023).

Test system: Human gingival fibroblasts

For eucalyptus oil, which “cytotoxicity of the microemulsion components (in words)” value is on record?
The value was “significant cytotoxicity”.
